What was measured:
[1] = target: Homeodomain-interacting protein kinase 3 (Homo sapiens) (UniProt Q9H422); assay: Inhibition of HIPK3 assessed as residual activity at 10 uM relative to control
[2] = target: Insulin receptor (Homo sapiens) (UniProt P06213); assay: Inhibition of IR assessed as residual activity at 1 uM relative to control

The chains behind the UniProt entries cited, without tags or fusion partners. Where a name states a change or a piece, a line headed by the entry shows the natural chain unless it says otherwise.
UniProt Q9H422: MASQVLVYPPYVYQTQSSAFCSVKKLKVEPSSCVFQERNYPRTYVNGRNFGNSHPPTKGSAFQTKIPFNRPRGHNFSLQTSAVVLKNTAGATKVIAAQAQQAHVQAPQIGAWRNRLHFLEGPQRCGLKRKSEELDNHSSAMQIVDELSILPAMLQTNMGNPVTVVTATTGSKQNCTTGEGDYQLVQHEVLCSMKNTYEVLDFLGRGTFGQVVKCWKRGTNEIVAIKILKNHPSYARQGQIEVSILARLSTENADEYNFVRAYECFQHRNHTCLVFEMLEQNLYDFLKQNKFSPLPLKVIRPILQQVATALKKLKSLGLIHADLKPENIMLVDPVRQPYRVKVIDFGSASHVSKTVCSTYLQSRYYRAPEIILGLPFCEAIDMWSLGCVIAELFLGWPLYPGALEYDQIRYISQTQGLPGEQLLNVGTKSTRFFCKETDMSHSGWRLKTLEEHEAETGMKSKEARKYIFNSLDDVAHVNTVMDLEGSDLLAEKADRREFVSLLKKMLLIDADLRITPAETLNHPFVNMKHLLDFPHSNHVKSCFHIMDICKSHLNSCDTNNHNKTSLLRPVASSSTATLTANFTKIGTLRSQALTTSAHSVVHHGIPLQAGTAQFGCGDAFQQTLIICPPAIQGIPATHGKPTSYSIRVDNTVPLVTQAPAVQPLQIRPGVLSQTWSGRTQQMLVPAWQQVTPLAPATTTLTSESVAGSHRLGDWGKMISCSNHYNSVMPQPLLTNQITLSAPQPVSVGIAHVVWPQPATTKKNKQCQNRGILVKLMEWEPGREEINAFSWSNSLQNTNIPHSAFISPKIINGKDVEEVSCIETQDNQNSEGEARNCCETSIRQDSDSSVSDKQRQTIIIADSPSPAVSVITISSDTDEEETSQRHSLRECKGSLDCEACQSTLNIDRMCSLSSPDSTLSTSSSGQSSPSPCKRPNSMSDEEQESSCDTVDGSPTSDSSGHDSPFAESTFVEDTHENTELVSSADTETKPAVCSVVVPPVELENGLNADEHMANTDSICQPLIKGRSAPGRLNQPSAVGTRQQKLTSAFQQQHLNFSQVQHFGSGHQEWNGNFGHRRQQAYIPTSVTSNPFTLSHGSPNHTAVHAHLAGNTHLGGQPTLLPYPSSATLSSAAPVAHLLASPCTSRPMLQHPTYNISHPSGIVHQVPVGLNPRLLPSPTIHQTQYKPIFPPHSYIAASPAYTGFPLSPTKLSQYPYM
UniProt P06213, whole entry: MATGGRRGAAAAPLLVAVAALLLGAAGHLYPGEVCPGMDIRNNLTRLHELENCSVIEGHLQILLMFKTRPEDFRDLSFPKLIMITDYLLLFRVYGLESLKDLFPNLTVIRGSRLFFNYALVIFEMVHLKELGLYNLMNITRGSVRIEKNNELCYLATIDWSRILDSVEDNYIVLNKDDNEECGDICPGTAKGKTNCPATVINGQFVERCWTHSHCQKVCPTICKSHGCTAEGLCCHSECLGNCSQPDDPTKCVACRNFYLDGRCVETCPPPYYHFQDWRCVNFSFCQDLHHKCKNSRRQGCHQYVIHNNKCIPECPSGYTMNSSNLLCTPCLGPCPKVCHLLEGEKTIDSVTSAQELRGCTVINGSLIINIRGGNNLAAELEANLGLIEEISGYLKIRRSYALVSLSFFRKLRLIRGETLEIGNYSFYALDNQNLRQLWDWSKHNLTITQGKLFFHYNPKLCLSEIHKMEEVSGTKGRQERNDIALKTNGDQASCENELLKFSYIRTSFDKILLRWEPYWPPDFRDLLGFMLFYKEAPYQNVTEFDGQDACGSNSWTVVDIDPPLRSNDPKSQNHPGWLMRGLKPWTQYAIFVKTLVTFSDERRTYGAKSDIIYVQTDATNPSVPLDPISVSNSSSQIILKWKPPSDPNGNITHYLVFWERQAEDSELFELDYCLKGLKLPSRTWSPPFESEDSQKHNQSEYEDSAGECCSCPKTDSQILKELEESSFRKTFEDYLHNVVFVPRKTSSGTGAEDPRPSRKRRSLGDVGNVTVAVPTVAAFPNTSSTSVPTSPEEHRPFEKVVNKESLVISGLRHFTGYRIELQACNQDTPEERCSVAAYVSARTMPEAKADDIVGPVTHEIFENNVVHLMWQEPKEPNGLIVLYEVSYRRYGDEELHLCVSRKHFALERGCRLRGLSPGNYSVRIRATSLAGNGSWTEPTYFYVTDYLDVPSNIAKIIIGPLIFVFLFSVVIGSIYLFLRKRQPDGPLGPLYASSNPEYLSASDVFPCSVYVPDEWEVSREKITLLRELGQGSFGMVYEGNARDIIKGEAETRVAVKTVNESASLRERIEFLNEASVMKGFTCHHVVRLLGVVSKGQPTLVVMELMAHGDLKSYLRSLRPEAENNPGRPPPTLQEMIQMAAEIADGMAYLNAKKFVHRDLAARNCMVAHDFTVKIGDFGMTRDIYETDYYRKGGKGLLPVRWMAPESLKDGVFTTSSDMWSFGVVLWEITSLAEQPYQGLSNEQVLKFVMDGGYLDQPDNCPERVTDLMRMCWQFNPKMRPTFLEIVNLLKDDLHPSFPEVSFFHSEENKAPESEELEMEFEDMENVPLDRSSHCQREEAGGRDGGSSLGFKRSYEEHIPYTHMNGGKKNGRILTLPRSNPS

- Activity [1]: 83%
- Activity [2]: 17%
SMILES: COc1cc(N2CCC(N3CCN(C)CC3)CC2)ccc1Nc1ncc(Cl)c(Nc2ccccc2S(=O)(=O)C(C)C)n1 [TAE-684]

Source: ChEMBL document CHEMBL2010643 (Bioorg Med Chem Lett, 2012)
